{
  "source": "patent US20120283274A1",
  "about": "“CRYSTALLINE FORMS OF SUBSTITUTED PYRAZOLOPYRIMIDINES” (priority 2009, published 2012)",
  "assay": "Determination of aqueous solubility (HPLC)",
  "conditions": "23° C.",
  "data": [
    {"substance": "co-crystal of (6-bromo-pyrazolo[1,5-a]pyrimidin-2-yl)-(1(R)-methyl-3,4-dihydro-1H-isoquinolin-2-yl)-methanone and succinic acid [Example 2a]", "values": [
      {"measurement": "pH of the filtrate", "setting": "filtrate of the aqueous suspension after 24 hours", "value": 3.1},
      {"measurement": "solid form after solubility test (FT-Raman compared with the spectrum before)", "setting": "solid after 24 hours in water", "value": "no change in form"},
      {"measurement": "Solubility", "setting": "suspended in water, 24 hours, concentration of the free base by HPLC", "value": 0.02, "unit": "mg/mL"}
    ]}
  ]
}
